Laboratory results taken from patent US8906945B2 (priority 2009, dated 2014).

Tests used:
[1] = test system: type II-mediated secretion of elastase from P. aeruginosa PA14; test: Elastase secretion assay (type II secretion); details: 50 μM
[2] = test system: P. aeruginosa cells; details: listed as MBX 1641
[3] = test system: CHO cells; test: Inherent cytotoxicity of compounds to CHO cells in the absence of P. aeruginosa (LDH release); details: 25 μM

SMILES | effect on type II-mediated elastase secretion [1] | effect on extent or rate of growth of P. aeruginosa cells [2] | cytotoxicity of the compound itself in the absence of P. aeruginosa cells [3]
CC(Oc1ccc(Cl)cc1Cl)C(=O)NCc1ccc2c(c1)OCO2 (racemic) [Compound 1, N-(benzo[d][1,3]dioxol-5-ylmethyl)-2-(2,4-dichlorophenoxy)propanamide] | nor do they inhibit the type II secretion system | minimal effects | 
CC(Oc1ccc(Cl)cc1Cl)C(=O)NCc1ccc(F)cc1 (racemic) [compound 6380194, 2-(2,4-dichlorophenoxy)-N-(4-fluorobenzyl)propanamide] |  |  | ~42%
CC(Oc1ccc(Cl)cc1Cl)C(=O)NCc1ccco1 (racemic) [compound 5685325, 2-(2,4-dichlorophenoxy)-N-(2-furylmethyl)propanamide] |  |  | about 8%
CCN1CCOC(CC(=O)Nc2ccc(F)cc2)C1=O (stereo not shown) [Compound 4, 2-(4-ethyl-3-oxomorpholin-2-yl)-N-(4-fluorophenyl)acetamide] | nor do they inhibit the type II secretion system |  | 
CCN1CCOC(CC(=O)Nc2ccc3c(c2)OCCO3)C1=O (stereo not shown) [Compound 3, N-(2,3-dihydrobenzo[b][1,4]dioxin-6-yl)-2-(4-ethyl-3-oxomorpholin-2-yl)acetamide] | nor do they inhibit the type II secretion system |  | 
Cc1ccc(N2C(=O)C3C(C2=O)C2(C)C=CC3(C)O2)c(C)c1 (stereo not shown) [Compound 8, 2-(2,4-dimethylphenyl)-4,7-dimethyl-3a,4,7,7a-tetrahydro-1H-4,7-epoxyisoindole-1,3(2H)-dione] | nor do they inhibit the type II secretion system |  | 
